According to patent publication US10100070B2, “Borate-based base generator, and base-reactive composition comprising such base generator” (FUJIFILM Wako Pure Chemical Corporation, priority 2014, dated 2018):

Experiment: Solubility tests to organic solvents and a base-reactive compound
Conditions: 0.1 g compound, visual

## 1,3-dimethyl-2-(N,N′,N″,N″-tetramethylguanidino)-4,5-dihydro-3H-imidazolium triphenyl(n-butyl)borate [Comp. Ex. 10]
Neopentylglycol diglycidyl ether added gradually at room temperature
  Solubility in SR-NPG: −− (dissolved only into not less than 10 mL thereof)
Propyleneglycol monomethylether acetate added gradually at room temperature
  Solubility in PGMEA: −− (dissolved only into not less than 10 mL thereof)
